Data published in the OPERA property sets (Mansouri et al. 2018).

Compound: CCCO[N+](=O)[O-]
- log10 OH rate constant (cm³/molecule/s): -12.1
